Measurements reported in patent US20140256912A1, “Stabilized Variant MAML Peptides and Uses Thereof” (PRESIDENT AND FELLOWS OF HARVARD COLLEGE, priority 2011, published 2014).

Sequences of proteins named here, by UniProt entry; tags and fusion partners are left off. Residues count along the entry.
UniProt P46531, 1761-2127: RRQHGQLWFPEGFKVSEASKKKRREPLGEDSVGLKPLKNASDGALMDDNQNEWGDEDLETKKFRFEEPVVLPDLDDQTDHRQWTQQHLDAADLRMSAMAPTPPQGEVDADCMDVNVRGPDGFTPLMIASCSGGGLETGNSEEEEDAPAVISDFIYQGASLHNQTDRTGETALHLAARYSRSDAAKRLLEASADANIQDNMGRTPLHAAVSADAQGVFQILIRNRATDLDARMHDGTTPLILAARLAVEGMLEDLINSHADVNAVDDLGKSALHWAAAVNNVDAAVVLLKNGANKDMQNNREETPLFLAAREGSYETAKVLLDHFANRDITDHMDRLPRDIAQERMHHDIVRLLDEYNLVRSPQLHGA
UniProt Q06330, 23-449: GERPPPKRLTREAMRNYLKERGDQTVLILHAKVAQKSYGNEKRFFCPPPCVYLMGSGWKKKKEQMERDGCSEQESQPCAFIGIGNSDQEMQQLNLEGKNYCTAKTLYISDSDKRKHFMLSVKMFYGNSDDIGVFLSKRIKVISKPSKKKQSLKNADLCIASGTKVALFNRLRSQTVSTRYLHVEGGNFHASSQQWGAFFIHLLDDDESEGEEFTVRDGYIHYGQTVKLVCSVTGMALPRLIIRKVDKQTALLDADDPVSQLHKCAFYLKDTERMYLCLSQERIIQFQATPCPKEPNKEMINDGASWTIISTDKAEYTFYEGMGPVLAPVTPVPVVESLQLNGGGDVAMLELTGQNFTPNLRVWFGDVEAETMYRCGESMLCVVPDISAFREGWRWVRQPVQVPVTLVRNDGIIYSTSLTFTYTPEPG

Biological target: T1, RAMANK1-CSL complexes (Homo sapiens, UniProt P46531+Q06330)
T1 construct: RAMANK1 (residues 1761-2127); Human CSL bearing a C-terminal hexahistidine tag (residues 9-435); hexahistidine (His6) (C); made in house; host or cells: E. coli BL21(DE3) pLysS
Test: Surface plasmon resonance binding of immobilized biotinylated peptides to soluble equimolar RAMANK1 and CSL
Settings: truncation to the N-terminal helix
Method: SPR was used to measure the binding kinetics between the immobilized bio-sdnMAML1 peptide and equimolar RAMANK1-CSL complexes, which confirmed high-affinity binding (KD=0.04 μM, FIG. 2c). To our knowledge, these experiments represent the first reported affinity for dnMAML1 to any component of the NTC.
Human CSL bearing a C-terminal hexahistidine tag (residues 9-435), RAMANK1 (residues 1761-2127) and GST-labeled RAMANK1 were expressed in BL21(DE3) pLysS cells (Stratagene) and purified as previously described^37.
A Biacore 3000 SPR-Instrument (Biacore-GE, Upsala, Sweden) was used to measure binding of Bio-sdnMAML1, Bio-sntdnMAML1 and Bio-SAHM1 peptides to soluble complexes of RAMANK1 and CSL. Peptides were dissolved in biacore binding buffer (20 mM Tris pH 8.4, 150 mM NaCl, 1 mM DTT, 1 mM EDTA and 0.05% P-20) and immobilized on a discrete flow cells of a streptavidin-CM5 Biacore chip by injection at 10 μL/min for 10 minutes. Equimolar dilutions of RAMANK1 and CSL (two-fold dilutions from 1 μM to 0.03125 μM, including two blanks) were mixed in biacore binding buffer and injected for 120-180 seconds onto the peptide-functionalized surface to measure NTC association kinetics, after which time NTC flow was stopped and buffer was injected to measure peptide dissociation kinetics. […]

Compound: CCCC[C@H](NC(=O)[C@@H](NC(=O)[C@H](C)NC(=O)[C@H](CO)NC(=O)CCNC(=O)CCOCCOCCOCCNC(=O)CCCC[C@@H]1SC[C@@H]2NC(=O)N[C@@H]21)C(C)C)C(=O)N[C@@H](CCC(=O)O)C(=O)N[C@@H](CCCNC(=N)N)C(=O)N[C@@H](CC(C)C)C(=O)N[C@@H](CCCNC(=N)N)C(=O)N[C@@H](CCCNC(=N)N)C(=O)N[C@@H](CCCNC(=N)N)C(=O)N[C@H](C(=O)N[C@@H](CCC(=O)O)C(=O)N[C@@H](CC(C)C)C(=O)N[C@@H](CS)C(=O)N[C@@H](CCCNC(=N)N)C(=O)N[C@@H](CCCNC(=N)N)C(=O)N[C@@H](Cc1c[nH]cn1)C(=O)N[C@@H](Cc1c[nH]cn1)C(=O)N[C@@H](CO)C(=O)N[C@H](C(=O)N[C@@H](CS)C(=O)N[C@@H](CCC(=O)O)C(=O)N[C@@H](C)C(=O)N[C@@H](CCCNC(=N)N)C(=O)N[C@@H](Cc1ccc(O)cc1)C(=O)N[C@@H](CCC(=O)O)C(=O)N[C@@H](C)C(=O)N[C@H](C(=O)N[C@@H](CO)C(N)=O)C(C)C)[C@@H](C)O)[C@@H](C)CC [bio-nt-sdnMAML1]
- decrease of affinity relative to s-dnMAML1: approximately 10 fold
